In PubChem BioAssay AID1515 (The Scripps Research Institute Molecular Screening Center, 2009) one finds inhibition data, which are given here for eleven compounds.

Protein sequences, listed by entry. Tags and fused reporters are not part of them.
UniProt O75884, whole entry: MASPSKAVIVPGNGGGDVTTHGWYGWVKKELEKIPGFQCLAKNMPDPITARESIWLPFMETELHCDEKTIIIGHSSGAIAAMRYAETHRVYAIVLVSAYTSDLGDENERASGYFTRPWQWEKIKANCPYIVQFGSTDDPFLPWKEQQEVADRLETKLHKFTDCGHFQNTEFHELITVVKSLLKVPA

Only a part is listed here, and it is no random draw. Some tests of the compounds listed are not included; inactive here does not mean inactive elsewhere. Activity calls are given as the source filed them.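 The calls were made as follows: active = inhibition above the campaign mean of all tested compounds plus 3 SD (cut at about 14% in these data); inactive = the rest.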

What is called inhibition is the relative decrease from the control value, in per cent.

The target of this test is Serine hydrolase RBBP9 (Homo sapiens) (UniProt O75884). The test can be described thus: blockers of RBBP9 serine hydrolase labeling – biochemical, fluorescence polarization, FP-Rh probe, HTS, primary screen (AID 1515).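 Also: plate controls were DMSO wells with RBBP9 for no effect and wells lacking RBBP9 protein for full effect.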 The conditions noted are these: recombinant RBBP9, FP-Rh probe fluorescence polarization; at 7.94 µM; hits give high values. In general terms: Polarisation of emitted light reports the rotation of a fluorescent probe.
For the compound `COc1cccc(C(=O)NCC2(N3CCCCC3)CCCCC2)c1`, the inhibition was inactive: -4.52%.
As for `O=C(OC1CN2CCC1CC2)C(CO)(c1ccccc1)c1ccccc1` (stereo unspecified), the inhibition is inactive: -4.06%.
For the compound `CN(C)c1cccc(C(=O)NCC2(N(C)C)CCCCC2)c1`, the inhibition is inactive: -6.87%.
Turning to `COc1ccc(Br)c(C(=O)NCC2(N3CCCCC3)CCCCC2)c1`, the inhibition is inactive: 2.17%.
The result for `O=C(NCC1(N2CCCCC2)CCCCC1)c1cc([N+](=O)[O-])ccc1Cl` reads inactive: 8.98%.
As for `CC(C)N1C(=O)CC2(CCN(CCOC(=O)C(O)(c3ccccc3)c3ccccc3)CC2)C1=O`, the figure is inactive: 1.76%; as for `CCN(CC)CC(C)C(C)OC(=O)C(O)(c1ccccc1)c1ccccc1` (stereo unspecified), inactive: 5.87%; as for `Cc1ccccc1C(=O)NCC1(N2CCCCC2)CCCCC1`, inactive: -9.33%.
For the compound `CN(C)C1CCCC1OC(=O)C(O)(c1ccccc1)c1ccccc1` (stereo unspecified), the inhibition was inactive: -8.72%.
Turning to `CCN1CCCC(OC(=O)C2(O)c3ccccc3C=Cc3ccccc32)C1` (stereo unspecified), the inhibition is inactive: 4.81%.
As to `C=CCN1CCN(CCOC(=O)C(O)(c2ccccc2)c2ccccc2)CC1`, the inhibition is inactive: -4.85%.
